From patent US6995283B2, “Benzophenones as inhibitors of reverse transcriptase” (priority 2001, dated 2006)

Test: Solubility
Assay type: physicochemical
Details: water; Crystal Form 1
Procedure: A stir bar was put in the vial. The vials were closed with caps and placed on stir plate. […] After equilibration, the samples were centrifuged. An accurate aliquot of clear solution was transferred to a HPLC vial by micropipette. The solubility was determined by HPLC with UV detector and against standard.

2-[4-chloro-2-(3-chloro-5-cyanobenzoyl)phenoxy]-N-{2-methyl-4-[(propionylamino)sulfonyl]phenyl}acetamide, Choline Salt, Form 1
Solubility: 66 mg/mL
